From US6664231B1, “Anti-fungal peptides” (priority 1993, dated 2003)

Tests used:
Assay type in all cases: cell-based
Candida parasilosis = tested on: Candida parasilosis
[1] = tested on: Candida albicans (SLU-1 and ATCC strains)
Description: (§1) The anti-fungal activity of Domain III derived peptides was evaluated against a variety of fungal species, including species of Candida. Cryptococcus, Fusarium, Trichophyton, and Aspergillus, by an additional assay protocol utilizing Alamar Blue. Alamar Blue is an indicator dye formulated to measure quantitatively the proliferation of a variety of human or animal cells, bacteria, or fungi. It consists of an oxidation-reduction (REDOX) indicator that yields a colorimetric change in response to metabolic activity. For these experiments, species of Candida and Cryptococcus were grown in Sabouraud's dextrose broth (SDB) overnight. Strains of filamentous fungi (Aspergilius, Fusanum, Trichophyton) were obtained by irrigation of a confluent culture from a petri dish. Cells were washed and adjusted to a concentration of 5.0×10^3/mL in fresh SDB. […] Controls included amphotericin B, fluconazole, ketoconazole and griseofulvin. Antifungal drugs were also diluted in the same manner. Assays were performed in 96-well microuiter plates. […] The wells to be plated were determined by OD590 readings. The lowest concentration of peptide which maintained the blue color (or OD reading) of the blank was chosen along with the next two higher concentrations. Plates were allowed to grow for 18-48 hours depending on the rate of growth of each fungus. Minimal fungicidal activity (MFC) was determined as a 99.9% killing of the starting inoculum.

[2] = tested on: Candida glabrata ATCC 2001
Description: as §1

[3] = tested on: Fusarium solani ATCC 36031
Description: as §1

[4] = tested on: Candida parapsilosis ATCC 22019
Description: as §1

Aspergillus ATCC 13073 = tested on: Aspergillus ATCC 13073
Description: as §1

[5] = tested on: Aspergillus niger ATCC 16404
Description: as §1

[6] = tested on: Trychophyton rubrum ATCC 28188
Description: as §1

[7] = tested on: Cryptococcus neoformans ATCC 13690
Description: as §1

SMILES	Candida parasilosis IC50 (Candida parasilosis) [µg/mL]	Minimum Fungicidal Concentration, Candida albicans ATCC 10231 [1] [µg/mL]	Minimum Fungicidal Concentration, Candida albicans ATCC 18840 [1] [µg/mL]	Minimum Fungicidal Concentration, Candida albicans ATCC 26555 [1] [µg/mL]	Minimum Fungicidal Concentration, Candida albicans ATCC 44808 [1] [µg/mL]	Minimum Fungicidal Concentration, Candida albicans ATCC 90028 [1] [µg/mL]	Minimum Fungicidal Concentration, Candida albicans SLU-1 [1] [µg/mL]	Minimum Fungicidal Concentration, Candida glabrata ATCC 2001 [2] [µg/mL]	Minimum Fungicidal Concentration, Fusarium solani ATCC 36031 [3] [µg/mL]	Minimum Fungicidal Concentration, Candida parapsilosis ATCC 22019 [4] [µg/mL]	Minimum Fungicidal Concentration, Aspergillus ATCC 13073 (Aspergillus ATCC 13073) [µg/mL]	Minimum Fungicidal Concentration, Aspergillus niger ATCC 16404 [5] [µg/mL]	Minimum Fungicidal Concentration, Trychophyton rubrum ATCC 28188 [6] [µg/mL]	Minimum Fungicidal Concentration, Cryptococcus neoformans ATCC 13690 [7] [µg/mL]
CC[C@@H](C)[C@@H](NC(=O)[C@@H](CCC(N)=O)NC(=O)[C@@H](CC(C)C)NC(=O)[C@@H](Cc1ccccc1)NC(=O)[C@@H](Cc1c[nH]cn1)NC(=O)[C@@H](CCCCN)NC(=O)[C@H](N)CCCCN)C(=O)N[C@H](CC(C)C)C(=O)N[C@H](Cc1c[nH]c2ccccc12)C(=O)N[C@H](CCCCN)C(N)=O [XMP.367]	2.32	5.0	2.5	2.5	10.0	5.0	2.5	>10.0	0.31	10.0	50.00	5.00	>10.0	1.25
CC[C@H](C)[C@H](NC(=O)[C@H](CC(C)C)NC(=O)[C@H](Cc1c[nH]c2ccccc12)NC(=O)[C@H](CCCCN)NC(C)=O)C(=O)N[C@@H](CCC(N)=O)C(=O)N[C@@H](CC(C)C)C(=O)N[C@@H](Cc1ccccc1)C(=O)N[C@@H](Cc1c[nH]cn1)C(=O)N[C@@H](CCCCN)C(=O)N[C@@H](CCCCN)C(N)=O [XMP.373]	3.74	5.0	2.5	1.25	2.5	2.5	2.5	10.0	2.5	10.0	>50.00	2.50	2.5	0.63
CC[C@H](C)[C@H](NC(=O)[C@H](CC(C)C)NC(=O)[C@H](Cc1c[nH]c2ccccc12)NC(=O)CNC(=O)[C@@H](N)CCCCN)C(=O)N[C@@H](CCC(N)=O)C(=O)N[C@@H](CC(C)C)C(=O)N[C@@H](Cc1ccccc1)C(=O)N[C@@H](Cc1c[nH]cn1)C(=O)N[C@@H](CCCCN)C(=O)N[C@@H](CCCCN)C(N)=O [XMP.389]	5.36	5.0	2.5	1.25	2.5	2.5	2.5	5.0	1.25	5.0	25.00	1.25	5.0	0.63
CC[C@H](C)[C@H](NC(=O)[C@H](CC(C)C)NC(=O)[C@H](Cc1c[nH]c2ccccc12)NC(=O)CNC(=O)[C@@H](NC(=O)[C@@H](N)CCCCN)C(C)C)C(=O)N[C@@H](CCC(N)=O)C(=O)N[C@@H](CC(C)C)C(=O)N[C@@H](Cc1ccccc1)C(=O)N[C@@H](Cc1c[nH]cn1)C(=O)N[C@@H](CCCCN)C(=O)N[C@@H](CCCCN)C(N)=O [XMP.391]	0.85	1.25	1.25	0.62	1.25	2.5	1.25	5.0	0.31	2.5	12.50	1.25	2.5	0.31
